# Curated experimental data: water solubility values

Water solubility is log10 of mol/L, nominally at 25 °C; higher is more soluble.
"n/a" marks a cell with nothing listed here.

| structure (SMILES) | name | log S (log10 mol/L) |
|---|---|---|
| CC(C)(C)S | t-Butyl mercaptan | -1.788 |
| COC(=O)C1C2C=CC(C2)C1C(=O)OC (stereo unspecified) | Dimethyl bicyclo[2.2.1]hept-5-ene-2,3-dicarboxylate | -1.2 |
| CCSC(=S)OC(C)C(=O)O (stereo unspecified) | 2-{[(Ethylsulfanyl)carbonothioyl]oxy}propanoic acid | -1.429 |
| CCCCCCCCCCCCCCCCCCCCCC[N+](C)(C)C.COS(=O)(=O)[O-] | Behentrimonium methosulfate | -4.836 |
| CC(=O)Oc1c(C)cc(OCC(O)CNC(C)C)c(C)c1C (stereo unspecified) | Metipranolol | -3.252 |
| On1nnc2ccccc21 | 1-Hydroxybenzotriazole | -1.507 |
| CCc1nc(C2CC2)c(C(N)=O)n1Cc1ccc2oc(-c3ccccc3NS(=O)(=O)C(F)(F)F)c(Br)c2c1 | Saprisartan | -4.607 |
| Clc1ccc(Oc2c(Cl)c(Cl)cc(Cl)c2Cl)c(Cl)c1 | 2,2',3,4',5,6-Hexachlorodiphenyl ether | -8.42 |
| CC(C)CCOC(=O)CC(C)C | 3-Methylbutyl 3-methylbutanoate | -3.554 |
| CCC(CC(CC)C(=O)O)C(=O)O (stereo unspecified) | 2,4-Diethylglutaric Acid | -1.09 |
| Clc1ccc(C(Cn2ccnc2)OCc2csc3c(Cl)cccc23)c(Cl)c1 (stereo unspecified) | Sertaconazole | -4.837 |
| CCN(CCC#N)c1ccc(N=Nc2c(Br)cc([N+](=O)[O-])cc2Br)cc1 | C.I. Disperse Orange 61 | -4.381 |
| CCCC(=O)CC(=O)C(=O)O | 2,4-Dioxoheptanoic acid | -0.619 |
| CCS(=O)(=O)CCn1c([N+](=O)[O-])cnc1C | Tinidazole | -1.912 |
| Nc1ccc(Cl)c(Cl)c1Cl | 2,3,4-Trichloroaniline | -3.47 |
| COc1ccc2c(c1)-c1nn(CCCN(C)C)c3ccc([N+](=O)[O-])c(c13)N2 | Pyrazoloacridine | -2.739 |
| O=[N+]([O-])c1ccc([O-])c(/N=N/c2c([O-])ccc3ccccc23)c1.O=[N+]([O-])c1ccc([O-])c(/N=N/c2c([O-])ccc3ccccc23)c1.[Cr+3].[Na+] | n/a | -4.477 |
| O=C(O)COc1ccc(C2CCCCC2)cc1 | (4-cyclohexylphenoxy)acetic acid | -3.495 |
| O=c1ncc2nccnc2[nH]1 | 2-Pteridinol | -1.948 |
| O=C(CCc1ccc(O)cc1)c1c(O)cc(O)cc1O | 3-(4-Hydroxyphenyl)-1-(2,4,6-trihydroxyphenyl)propan-1-one | -3.348 |
| O=C(O)c1ccc2cc(O)ccc2c1 | 6-Hydroxy-2-naphthoic acid | -3.279 |
| N#Cc1c(N)nc(NC2CC2)nc1N | Dicyclanil | -0.58 |
| O=c1[nH]cc(NS(=O)(=O)O)c(=O)[nH]1 | 2,4-Dihydroxy-5-pyrimidinylsulfamic acid | -1.766 |
| O=C(O)CN[C@@H](Cc1ccc(O)cc1)C(=O)O | N-(Carboxymethyl)-L-tyrosine | -2.598 |
| CC(C)NCC(O)COc1cccc2[nH]ccc12 (stereo unspecified) | Pindolol | -3.676 |
| Cc1ccc(NS(=O)(=O)c2ccc(N)cc2)nn1 | 4-amino-n-(6-methylpyridazin-3-yl)benzenesulfonamide | -2.637 |
| CC(=O)[C@@]1(O)CC[C@H]2[C@@H]3C=C(Cl)C4=CC(=O)[C@@H]5C[C@@H]5[C@]4(C)[C@H]3CC[C@@]21C | Cyproterone | -4.751 |
| Nc1nc(Cl)nc2c1ncn2[C@@H]1O[C@H](CO)[C@@H](O)[C@@H]1F | Clofarabine | -1.793 |
| Clc1cc(Cl)cc(Oc2ccc(Cl)c(Cl)c2)c1 | n/a | -7.32 |
| C[C@H](O[C@H](C)C(N)=O)C(N)=O | (2R,2'S)-2,2'-Oxydipropanamide | 0.034 |
| CC(C(=O)O)c1ccc(C(=O)c2ccccc2)s1 (stereo unspecified) | Tiaprofenic acid | -3.905 |
| C[C@H](CCC(=O)NCC(=O)O)[C@H]1CC[C@H]2[C@@H]3[C@@H](O)C[C@@H]4C[C@H](O)CC[C@]4(C)[C@H]3CC[C@]12C | Glycoursodeoxycholic acid | -5.339 |
| COc1cnc(-n2cnc(C)n2)c2c1c(C(=O)C(=O)N1CCN(C(=O)c3ccccc3)CC1)cn2COP(=O)(O)O | n/a | -0.368 |
| CCCC(=O)n1ncc2c(=O)[nH]cnc21 | 1-Butyryl-1,5-dihydro-4H-pyrazolo[3,4-d]pyrimidin-4-one | -3.273 |
| O[C@@H]1[C@H](O)[C@@H]2OC[C@@H](O2)[C@@H]1O | Levoglucosan | -0.415 |
| CC(=O)[C@H](C)NC(N)=O | Alanine, N-(aminocarbonyl)- | -0.778 |
| Clc1ccc(I)cc1 | Benzene, 1-chloro-4-iodo- | -3.785 |

The 2 lowest values of log S among the entries above:

| structure (SMILES) | name | log S (log10 mol/L) |
|---|---|---|
| Clc1ccc(Oc2c(Cl)c(Cl)cc(Cl)c2Cl)c(Cl)c1 | 2,2',3,4',5,6-Hexachlorodiphenyl ether | -8.42 |
| Clc1cc(Cl)cc(Oc2ccc(Cl)c(Cl)c2)c1 | n/a | -7.32 |

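OPERA's authors assembled the values from existing databases and did not measure them anew. A listed value is a point estimate from one report or more. Method and conditions are not stated for these values. The measured form (salt, isomer or mixture) is not always the one drawn. Some upstream entries may be estimates or bounds without being marked so.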

Data: OPERA 2.9 data sets, kmansouri/OPERA on GitHub.